This data set in a line: Solubility of monensin sodium salt in various solvents (weight difference after filtration). Type of data set: physicochemical. Conditions: for Solubility: ambient temperature; for Solubility (grade): grade symbols, key not given. As for the experimental part: Monensin sodium salt (200 g) was mixed with 10 mL of solvent. The solution was stirred for 2 hours and then filtered through sintered glass. The precipitate was then dried and weighed. The difference between the weight of the product initially introduced and the one remaining on the sintered disk after filtration indicated the solubility of the product at ambient temperature in a 10 mL volume.

Usually Solubility stands for how much of the substance goes into solution per volume. For the substance Monensin sodium salt, the “Solubility” value runs as follows: (solvent Acetone) 15.1 mg/mL; (solvent Acetonitrile) 7.0 mg/mL; (solvent Chloroform) 20 mg/mL; (solvent DMF) 18.7 mg/mL; (solvent DMSO) 1.1 mg/mL; (solvent Ethyl acetate) 11.9 mg/mL. In addition, the “Solubility” value reads like this: (solvent H2O) 3.3 mg/mL; (solvent Methanol) 20 mg/mL; (solvent THF) 20 mg/mL; (solvent Toluene) 20 mg/mL. Also, the “Solubility (grade)” value (solvent Chloroform) was “+ + +”; the “Solubility (grade)” value (solvent DMF) is reported as “+ +”; the “Solubility (grade)” value (solvent DMSO) is reported as “- - -”; the “Solubility (grade)” value (solvent H2O) is reported as “- -”; the “Solubility (grade)” value (solvent Methanol) is listed as “+ + +”; the “Solubility (grade)” value (solvent THF) is recorded as “+ + +”. For the setting “solvent Toluene”, the “Solubility (grade)” value is reported as “+ + +”.

These data come from patent US8822528B2, “Monensin derivatives for the treatment and prevention of protozoal infections” (Merial Limited, priority 2010, dated 2014).
